Measured values: ChEMBL document CHEMBL4312008, “6-Methyluracil derivatives as peripheral site ligand-hydroxamic acid conjugates: Reactivation for paraoxon-inhibited acetylcholinesterase” (2020)

Legend:
[1] = Drug uptake in iv dosed Wistar rat brain measured every 1 hr for 3 hrs by microdialysis technique based HPLC/UV detection method; conditions: in vivo, strain Wistar
[2] = Toxicity in CD1 mouse assessed as mortality at 300 mg/kg, iv; conditions: in vivo
Rattus norvegicus [3] = experiment: Protection against POX-induced mortality in Wistar rat assessed as increase in survival at 100 mg/kg, iv administered 15 mins before POX poisoning in presence of 2-PAM
Rattus norvegicus [4] = experiment: In vivo reactivation of POX-inhibited AChE in rat brain assessed as AChE inhibition level at 100 mg/kg, iv administered at 1 hr post POX poisoning and measured after 1 hr using acetylthiocholine iodide substrate in presence of BChE inhibitor iso-OMPA by Ellman's method (reference value: 72.4 +/- 3.5%)
Mus musculus = experiment: Protection against POX-induced mortality in CD1 mouse assessed as animal survival at 300 mg/kg, iv administered 2 mins after challenge with POX at concentration of 5 X LD50
Rattus norvegicus [5] = experiment: Protection against POX-induced mortality in Wistar rat assessed as increase in survival at 10 mg/kg, ip administered 15 mins before POX poisoning

## C[n+]1ccccc1/C=N/O
[1]
  Drug uptake: < 10%

## Cc1cc(=O)n(C)c(=O)n1CCCCCn1cnc(C(=O)NO)n1
[2]
  Activity: Non-Toxic
Rattus norvegicus [3]
  Survival: 90%
Rattus norvegicus [4]
  inhibition (INH): 47.1%
Mus musculus
  Survival: 0%

## C[n+]1ccccc1C=NO
Rattus norvegicus [5]
  Survival: 90%
